# Antibody variant affinities, Ab-14 light chain, assay B

Reference: Li et al. 2023, doi:10.1038/s41467-023-39022-2. File: FLAb, binding data.

All variants were tested on one target, the spike HR2 peptide PDVDLGDISGINAS (SARS-CoV-2).

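The starting antibody came from a phage panning campaign against this peptide. These sequences belong to a second round, designed from the earlier measurements on random variants of the parent. Their group label is 14L_En_Gibbs (En: ensemble of fine-tuned language models; Gibbs: Gibbs sampling). In AlphaSeq, yeast of one mating type display the scFv and yeast of the other type display the target. The frequency of each diploid, read from paired DNA barcodes, reflects how well the two displayed proteins bind. Read counts were normalised to the haploid input and turned into Kd by a linear fit to BCL2-family pairs of known affinity, for each replicate. Mating was done six times.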

Parent scFv Ab-14: VH joined to VL by three GGGGS repeats. Changes lie in the light chain CDRs alone.
VH: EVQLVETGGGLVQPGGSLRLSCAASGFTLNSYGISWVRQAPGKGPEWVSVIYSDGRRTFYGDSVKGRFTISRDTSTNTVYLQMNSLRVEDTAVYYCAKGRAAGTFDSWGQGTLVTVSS
VL: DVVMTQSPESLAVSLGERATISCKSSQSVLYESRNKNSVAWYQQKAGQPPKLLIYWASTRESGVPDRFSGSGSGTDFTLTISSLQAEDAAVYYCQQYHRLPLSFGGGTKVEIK

The parent's light chain CDRs are KSSQSVLYESRNKNSVA, WASTRES, QQYHRLPLS; each variant's own CDRs replace them letter for letter.
Values are log10 of the apparent Kd in nM; lower means stronger binding.
"n.d." means that the variant was in the library but no mating with the target was seen in that replicate; the authors take this as a sign of poor binding, and no number exists.
The authors averaged sequences with at least three values out of six and counted those with two or fewer as poor binders.
The range of this assay differs from that of the first round, and the authors advise against merging the two.
Three control strains display no target. For all light chain designs, 4% of the pairings with them gave a signal, with a median of 2.64 and one signal in twenty below 1.59, so weak values seen in few replicates may be background. The control count says in how many pairings with the empty strains this scFv gave a signal, with their mean in brackets.
Of ten entries with the parent sequence, four were seen in most replicates (averages 0.34 to 2.37), three in one and three in none, so single entries are noisy.

CDR-L1	CDR-L2	CDR-L3	log10 Kd (nM) by replicate	control signals
MMKMPNHEVNFDKNSVA	EATTKES	QQYHRLPIT	0.81 0.81 0.75 0.68 0.61 1.07	1 of 18 (2.55)
QIQFESEVGYKDKNSMA	DSECKAA	QQYFQLPLM	0.25 0.13 0.04 0.14 0.39 0.30	2 of 18 (3.17)
YMSDLSQETSADANHIA	DGEARDV	QQYARLPLI	0.56 0.78 0.62 0.60 0.50 0.89	3 of 18 (2.76)
MIAHAPLSINQRMNSVA	NGAEAVI	QQYDRLPLA	1.02 0.98 0.91 1.16 0.74 1.11	0 of 18
MVSMEPNEGTRYWEAVA	DHSQRNN	QQYDQLPLS	n.d. n.d. n.d. n.d. n.d. n.d.	0 of 18
KISKPWELGEPSTNAVA	NADIANA	QQYSRLPLS	0.35 0.46 0.34 0.51 0.07 0.51	1 of 18 (2.30)
KVTMYELPMEFNRSAVA	QAEVRAP	QQYWRLPLE	2.31 2.64 2.34 2.54 n.d. 2.12	0 of 18
TLHANIEYGGIMWSSIA	GNVQRAN	QQYARLPLG	n.d. 3.52 2.06 2.54 2.49 2.65	1 of 18 (3.46)
SLAYTQHFGQTGGKAVA	EVAMRCQ	QQYFRLPLG	0.93 0.33 0.77 0.58 0.74 1.22	0 of 18
KVSIFMLTMDNANSHIA	NMAEERT	QQYQRLPLS	n.d. n.d. n.d. n.d. n.d. n.d.	0 of 18
VFSGQWDLNTTENSAVA	NVDERML	QQYNRLPLM	1.17 1.36 1.47 1.43 1.21 n.d.	1 of 18 (2.46)
YFDQASMTENDKGNSIA	EENHKYN	QQYFQLPLI	0.88 0.56 1.61 1.42 1.43 1.19	0 of 18
KIQPHLSQSFASKNNVA	DRQLSAE	QQYNRLPLV	0.80 0.56 0.50 0.62 0.73 1.07	0 of 18
HTQHLGFDDPKHWNSIA	EVSQVCS	QQYMRLPLT	1.63 1.08 1.13 1.87 1.54 2.01	0 of 18
NISINQADEYAMRNNIA	NTSWKAI	QQYFHLPLM	0.59 0.81 0.68 0.56 0.48 0.89	1 of 18 (2.10)
DVTVVDNGDSKIQNSIA	HGVEKCD	QQYSRLPLA	0.62 0.41 0.26 0.12 0.10 0.46	1 of 18 (1.78)
SLYENYQNGGQHTNAVA	DANQMMR	QHYNRLPLA	0.35 0.26 0.20 0.44 0.13 0.40	3 of 18 (2.70)
NLVGRVPDMYQGRNAIA	DMHCRAG	QQYERLPLA	0.39 0.90 0.08 0.68 0.03 0.51	0 of 18
KLKYQADHYGMNWNNVA	QADIRAP	QQYNKLPLN	0.49 0.54 0.40 0.37 0.30 0.35	2 of 18 (3.53)
NLSDGEMYHNATRSAVA	NTSMRDF	QQYNRLPLD	1.59 1.67 2.36 n.d. n.d. 1.60	0 of 18
SLDSYVGYDTQNKKNIA	EETRVDR	QQYAHLPLM	0.95 0.49 2.05 0.79 1.42 0.83	0 of 18
ALSMMNFYGYRDENGIA	GADELAK	QQYYRLPLV	1.81 1.35 0.69 1.09 0.72 0.89	1 of 18 (2.79)
TIFQERSYEDGDERNIA	DARTRNI	QQYNRLPLV	0.69 0.69 0.48 0.36 0.95 0.66	0 of 18
NLKEWNVDNQTFYSNIA	EADIREL	QQYYRLPLQ	1.62 1.90 1.54 1.81 2.12 1.70	1 of 18 (3.01)
QVGQTRQADISNKKSIA	AGETLID	QQYGRLPFS	0.37 0.39 0.01 0.49 0.62 0.43	1 of 18 (1.69)
NLQLQPRDGAQAQSSIA	DVSEADM	QQYARLPLT	0.07 0.71 0.55 1.80 0.82 0.41	0 of 18
KLSWDDMSHFNTRSAVA	NTTMRAF	QQYNRLPLD	1.47 1.60 1.30 1.20 1.27 1.08	1 of 18 (3.09)
RIMYEYDKSVDKYNAVA	QAHIRAQ	QFYNRLPLS	1.76 1.57 1.80 1.58 1.75 1.68	1 of 18 (3.04)
QIEWYNSGLTEAKNSVA	GVEHRMN	QQYMRLPLE	-0.05 -0.24 -0.04 -0.22 0.03 0.10	0 of 18
SLTVIDNYGSQLENNIA	QGVCKAE	QQYIRLPLI	1.07 2.03 n.d. 2.56 1.19 1.15	0 of 18
KFSGSKEMVNKDQESIA	GSHTIQE	QQYSRLPLA	0.62 0.53 0.52 0.46 0.49 0.57	1 of 18 (1.91)
NMEGVEFEIAQHGNSVA	GVDLREA	QQYFRLPLH	1.55 0.90 0.93 1.84 0.97 1.20	1 of 18 (2.56)
KLSDPTREWIANQSAVA	EDADTVH	QQYARLPLT	n.d. n.d. n.d. n.d. n.d. n.d.	0 of 18
FIMHFGEESNRNSKNIA	SKDTRCD	QQYNRLPLS	0.09 0.06 0.09 0.21 -0.12 0.11	2 of 18 (2.31)
KIELDLTRYNAGHAAIA	HETMKAQ	QQYSRLPLI	1.00 0.64 0.76 0.83 1.10 0.95	0 of 18
ILEENSDDITEQGNSIA	ETNMVYS	QQYHRLPLA	1.07 2.04 1.45 1.45 2.06 2.48	2 of 18 (2.67)
HVTMELAEEKNSYRNIA	DASMRLA	QQYVRLPLG	0.61 0.45 0.32 -0.19 0.07 0.20	3 of 18 (2.38)
HITDLMYNNNEGMENIA	DKNISVM	QQYFRLPLI	0.92 0.65 0.84 0.53 1.00 0.99	0 of 18
KLSWKSLHGDDRWSAVA	NESVRLA	QQYFRLPIQ	1.00 0.74 0.49 0.79 0.67 0.77	2 of 18 (2.96)
QINMEMNHDLDDAQNVA	DAMTEVK	QQYNRLPLS	n.d. n.d. 1.74 n.d. n.d. n.d.	0 of 18
SLENFTGEQNAYGSSIA	NADVLVY	QQYYRLPIV	n.d. n.d. n.d. n.d. n.d. n.d.	0 of 18
KIEWYSMDNRLTISAIA	EASTIYQ	QQYMHLPLS	n.d. n.d. n.d. 0.04 n.d. -0.56	0 of 18
QVTAFNEHLKDQQQAMA	NATMRDQ	QQYERLPLS	1.02 0.37 1.06 0.81 1.09 1.34	1 of 18 (2.72)
ALSFEMESPHLHSNNVA	SASKLCM	QQYFTLPLS	1.16 1.05 1.10 1.38 1.22 0.94	1 of 18 (2.05)
KIQDNLGTLMEQINSVA	ASEEIVD	QSYFRLPLS	1.84 1.62 1.82 2.71 2.06 1.41	1 of 18 (1.56)
QFFSRFGQLTEIRNAVA	DATEVAD	QQYMHLPLT	0.14 0.16 0.10 -0.08 0.02 0.18	0 of 18
VVSGLFQGDEQQYNSIA	EASLSNT	QQYISLPLS	3.37 1.48 1.84 1.37 1.88 2.36	0 of 18

From the list, the first 3 with no signal in any replicate:

CDR-L1	CDR-L2	CDR-L3	log10 Kd (nM) by replicate	control signals
MVSMEPNEGTRYWEAVA	DHSQRNN	QQYDQLPLS	n.d. n.d. n.d. n.d. n.d. n.d.	0 of 18
KVSIFMLTMDNANSHIA	NMAEERT	QQYQRLPLS	n.d. n.d. n.d. n.d. n.d. n.d.	0 of 18
KLSDPTREWIANQSAVA	EDADTVH	QQYARLPLT	n.d. n.d. n.d. n.d. n.d. n.d.	0 of 18